Assay results published in patent US6124305A, “Use of N-(substituted glycyl)-2-cyanopyrrolidines in inhibiting dipeptidyl peptidase-IV” (Novartis AG, priority 1999, dated 2000).
Where a name gives a salt, the structure may show the parent alone.

The chains behind the UniProt entries cited, without tags or fusion partners. Residues count along the entry.
UniProt P14740, 37-767 limits assumed: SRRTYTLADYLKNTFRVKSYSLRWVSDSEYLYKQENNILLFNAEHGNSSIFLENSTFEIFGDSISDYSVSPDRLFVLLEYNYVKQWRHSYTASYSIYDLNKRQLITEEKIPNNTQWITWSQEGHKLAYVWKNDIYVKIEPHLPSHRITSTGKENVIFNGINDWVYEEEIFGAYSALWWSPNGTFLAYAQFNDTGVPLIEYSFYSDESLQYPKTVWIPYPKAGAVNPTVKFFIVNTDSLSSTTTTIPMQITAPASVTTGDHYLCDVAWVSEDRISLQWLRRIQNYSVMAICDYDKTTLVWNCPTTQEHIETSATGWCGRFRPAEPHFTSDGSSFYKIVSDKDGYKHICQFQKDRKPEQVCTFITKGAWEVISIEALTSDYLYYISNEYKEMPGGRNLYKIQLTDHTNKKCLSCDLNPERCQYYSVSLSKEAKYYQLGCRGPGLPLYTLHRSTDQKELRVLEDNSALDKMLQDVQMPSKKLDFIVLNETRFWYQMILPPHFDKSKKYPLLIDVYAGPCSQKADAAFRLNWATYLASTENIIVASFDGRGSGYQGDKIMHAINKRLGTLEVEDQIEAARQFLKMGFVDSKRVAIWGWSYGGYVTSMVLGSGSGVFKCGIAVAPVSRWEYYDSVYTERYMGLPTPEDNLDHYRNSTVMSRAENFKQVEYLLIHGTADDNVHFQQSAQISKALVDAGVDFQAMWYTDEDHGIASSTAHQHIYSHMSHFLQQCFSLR

Each compound was assayed against T1, rat plasma DPP-IV (Rattus norvegicus, UniProt P14740) (assay: rat plasma DPP-IV inhibition assay).
T1 construct: DPP-IV activity in human and rat plasma; from tissue; host or cells: rat plasma
Format: biochemical

With `N#C[C@@H]1CCCN1C(=O)CNC1(CO)CCCCC1` as the compound, how does the IC50 read?
Its IC50 is 40 nM.

With `N#C[C@@H]1CCCN1C(=O)CNCCNc1ccccn1` as the compound, how does the IC50 read?
Its IC50 is 32 nM.

How did the IC50 turn out when `C[C@@H]1[C@H]2C[C@@H](C[C@H]1NCC(=O)N1CCC[C@H]1C#N)C2(C)C` (relative stereo) [Ex. 33, Pyrrolidine, 1-[(2,6,6-trimethylbicyclo[3.1.1]hept-3-yl)amino]acetyl-2-cyano-, (S)[1S[1α,2β,3α(S*),5α]]-monohydrochloride] was run?
Its IC50 is 10 nM.

For `C[C@@H]1[C@@H](NCC(=O)N2CCC[C@H]2C#N)C[C@H]2C[C@@H]1C2(C)C` (relative stereo) [Ex. 44, Pyrrolidine, 1-[(2,6,6-trimethylbicyclo[3.1.1]hept-3-yl)amino]acetyl-2-cyano-, [1S[1α,2α,3β(S*),5α]]-monohydrochloride], which IC50 is on record?
The IC50 was 10 nM.

Which IC50 does the source give for `N#C[C@@H]1CCCN1C(=O)CNC1(CO)CCCC1` [Ex. 5, 1-[(1-hydroxymethylcyclopent-1-yl)amino]acetyl-2-cyano-(S)-pyrrolidine] here?
Its IC50 is 18 nM.

How did the IC50 turn out when `N#C[C@@H]1CCCN1C(=O)CNCCNc1ccc([N+](=O)[O-])cn1` [Ex. 8, 1-[2-[(5-nitropyridin-2-yl)amino]ethylamino]acetyl-2-cyano-(S)pyrrolidine] was run?
Its IC50 is 11 nM.

For `N#C[C@@H]1CCCN1C(=O)CNCc1cccc2ccccc12` [Ex. 20, Pyrrolidine, 1-[[(1-naphthalenyl)methyl]amino]acetyl-2-cyano-, (S)--, monohydrochloride], which IC50 is on record?
Its IC50 is 150 nM.

How did the IC50 turn out when `N#C[C@@H]1CCCN1C(=O)CNCCCc1ccccc1` [Ex. 21, Pyrrolidine, 1-[(3-phenylpropyl)amino]acetyl-2-cyano-, (S)--, monohydrochloride] was run?
The IC50 was 110 nM.

Which IC50 does the source give for `N#C[C@@H]1CCCN1C(=O)CNC1CCCCCC1` [Ex. 24, Pyrrolidine, 1-(acycloheptylamino)acetyl-2-cyano-, (S)--, monohydrochloride] here?
Its IC50 is 19 nM.

`N#C[C@@H]1CCCN1C(=O)CNC1CCCCC1` [Ex. 28, Pyrrolidine, 1-(cyclohexylamino)acetyl-2-cyano-, (S)--, monohydrochloride] was tested. Which IC50 did it give?
Its IC50 is 60 nM.

How did the IC50 turn out when `N#C[C@@H]1CCCN1C(=O)CNC1CCC1` [Ex. 38, Pyrrolidine, 1-(cyclobutylamino)acetyl-2-cyano-, (S)-monohydrochloride] was run?
The IC50 was 23 nM.

With `N#C[C@@H]1CCCN1C(=O)CNC1CC1` [Ex. 43, Pyrrolidine, 1-(cyclopropylamino)acetyl-2-cyano-, (S)--, monohydrochloride] as the compound, how does the IC50 read?
Its IC50 is 120 nM.

How did the IC50 turn out when `N#C[C@@H]1CCCN1C(=O)CNCCOc1ccccc1` [Ex. 45, Pyrrolidine, 1-[[(2-phenoxy)ethyl]amino]acetyl-2-cyano-, (S)--, monohydrochloride] was run?
The IC50 was 390 nM.

Which IC50 does the source give for `N#C[C@@H]1CCCN1C(=O)CNC1C2CC3CC(C2)CC1C3` (stereo partly drawn) [Ex. 49, Pyrrolidine, 1-[(2-adamantyl)amino]acetyl-2-cyano-, (S)--, monohydrochloride] here?
Its IC50 is 3 nM.

For `N#C[C@@H]1CCCN1C(=O)CNCc1ccccc1` [Ex. 51, Pyrrolidine, 1-[(phenylmethyl)amino]acetyl-2-cyano-,(S)--, monohydrochloride], which IC50 is on record?
The IC50 was 150 nM.

Which IC50 does the source give for `N#C[C@@H]1CCCN1C(=O)CNCCc1ccccc1` [Ex. 54, Pyrrolidine, 1-[(2-phenylethyl)amino]acetyl-2-cyano-, (S)--, monohydrochloride] here?
Its IC50 is 60 nM.

How did the IC50 turn out when `N#C[C@@H]1CCCN1C(=O)CNC1CCCCCCC1` [Ex. 58, Pyrrolidine, 1-(cyclooctylamino)acetyl-2-cyano-, (S)--, monohydrochloride] was run?
Its IC50 is 100 nM.

Which IC50 does the source give for `N#Cc1ccc(NCCCNCC(=O)N2CCC[C@H]2C#N)nc1` [Ex. 63, Pyrrolidine, 1-[[3-[(5-cyano-2-pyridinyl)amino]propyl]amino]acetyl-2-cyano-, (S)--, dihydrochloride] here?
The IC50 was 30 nM.
